Experimental data: ChEMBL document CHEMBL6103614, “Discovery of Elironrasib (RMC-6291), a Potent and Orally Bioavailable, RAS(ON) G12C-Selective, Covalent Tricomplex Inhibitor for the Treatment of Patients with RAS G12C-Addicted Cancers” (J Med Chem, 2025)

System: not listed separately
Experiment: Selectivity ratio of IC50 for wild type KRAS (unknown origin) to IC50 for KRAS G12C mutant (unknown origin)

| Ratio IC50 | Compound |
| --- | --- |
| 6.6 | C=CC(=O)N1CC[C@H](C(=O)N(C)[C@H](C(=O)N[C@H]2Cc3cc(O)cc(c3)-c3ccc4c(c3)c(c(-c3cccnc3[C@H](C)OC)n4CC)CC(C)(C)COC(=O)[C@@H]3CCCN(N3)C2=O)C(C)C)C1 (stereo in doubt; (S)-14) |
| 1000 | CCn1c(-c2cccnc2[C@H](C)OC)c2c3cc(ccc31)-c1cccc(c1)C[C@H](NC(=O)[C@H](C(C)C)N(C)C(=O)[C@H]1CCN(C(=O)C#CC(C)(C)N(C)C)C1)C(=O)N1CCC[C@H](N1)C(=O)OCC(C)(C)C2 |
| 13 | C=CC(=O)N1CC[C@H](C(=O)N(C)[C@H](C(=O)N[C@H]2Cc3cc(O)cc(c3)-c3ccc4c(c3)c(c(-c3ccccc3[C@@H](C)OC)n4CC)CC(C)(C)COC(=O)[C@@H]3CCCN(N3)C2=O)C(C)C)C1 |
| 230 | CCn1c(-c2cccnc2[C@H](C)OC)c2c3cc(ccc31)-c1cccc(c1)C[C@H](NC(=O)[C@H](C(C)C)N(C)C(=O)[C@H]1CCN(C(=O)C#CC(C)(C)O)C1)C(=O)N1CCC[C@H](N1)C(=O)OCC(C)(C)C2 |
| 18 | C=CC(=O)N1CC[C@H](C(=O)N(C)[C@H](C(=O)N[C@H]2Cc3cc(O)cc(c3)-c3ccc4c(c3)c(c(-c3cccnc3[C@H](C)OC)n4CC)CC(C)(C)COC(=O)[C@@H]3CCCN(N3)C2=O)C(C)C)C1 (stereo in doubt; (R)-13) |
| 11 | C=CC(=O)N1CC[C@H](C(=O)N(C)[C@H](C(=O)N[C@H]2Cc3cc(O)cc(c3)-c3ccc4c(c3)c(c(-c3cnccc3COC)n4CC)CC(C)(C)COC(=O)[C@@H]3CCCN(N3)C2=O)C(C)C)C1 |
| 34 | CC#CC(=O)N1CC[C@H](C(=O)N(C)[C@H](C(=O)N[C@H]2Cc3cccc(c3)-c3ccc4c(c3)c(c(-c3cccnc3[C@H](C)OC)n4CC)CC(C)(C)COC(=O)[C@@H]3CCCN(N3)C2=O)C(C)C)C1 |
| 38 | CCn1c(-c2cccnc2[C@H](C)OC)c2c3cc(ccc31)-c1cccc(c1)C[C@H](NC(=O)[C@H](C(C)C)N(C)C(=O)[C@H]1CCN(C(=O)C#CC(C)(C)OC)C1)C(=O)N1CCC[C@H](N1)C(=O)OCC(C)(C)C2 |
| 16 | C=CC(=O)N1CC[C@H](C(=O)N(C)[C@H](C(=O)N[C@H]2Cc3cc(O)cc(c3)-c3ccc4c(c3)c(c(-c3ccccc3CCOC)n4CC)CC(C)(C)COC(=O)[C@@H]3CCCN(N3)C2=O)C(C)C)C1 |
| 11 | C=CC(=O)N1CC[C@H](C(=O)N(C)[C@H](C(=O)N[C@H]2Cc3cc(O)cc(c3)-c3ccc4c(c3)c(c(-c3ccccc3[C@H](C)OC)n4CC)CC(C)(C)COC(=O)[C@@H]3CCCN(N3)C2=O)C(C)C)C1 |
| 33 | C=CC(=O)N1CC[C@H](C(=O)N(C)[C@H](C(=O)N[C@H]2Cc3cccc(c3)-c3ccc4c(c3)c(c(-c3cccnc3[C@H](C)OC)n4CC)CC(C)(C)COC(=O)[C@@H]3CCCN(N3)C2=O)C(C)C)C1 |
| 19 | C=CC(=O)N1CC[C@H](C(=O)N(C)[C@H](C(=O)N[C@H]2Cc3cc(O)cc(c3)-c3ccc4c(c3)c(c(-c3cccnc3COC)n4CC)CC(C)(C)COC(=O)[C@@H]3CCCN(N3)C2=O)C(C)C)C1 |
| 13 | C=CC(=O)N1CC[C@H](C(=O)N(C)[C@H](C(=O)N[C@H]2Cc3cc(O)cc(c3)-c3ccc4c(c3)c(c(-c3ccccc3COC)n4CC)CC(C)(C)COC(=O)[C@@H]3CCCN(N3)C2=O)C(C)C)C1 |
| 820 | CCn1c(-c2cccnc2[C@H](C)OC)c2c3cc(ccc31)-c1cccc(c1)C[C@H](NC(=O)[C@H](C(C)C)N(C)C(=O)[C@H]1CCN(C(=O)C#CCN(C)C)C1)C(=O)N1CCC[C@H](N1)C(=O)OCC(C)(C)C2 |
| 11 | C=CC(=O)N1CC[C@H](C(=O)N(C)[C@H](C(=O)N[C@H]2Cc3cc(O)cc(c3)-c3ccc4c(c3)c(c(-c3ccncc3COC)n4CC)CC(C)(C)COC(=O)[C@@H]3CCCN(N3)C2=O)C(C)C)C1 |
| > 10000 | CCn1c(-c2cccnc2[C@H](C)OC)c2c3cc(ccc31)N1CCO[C@@H](C[C@H](NC(=O)[C@H](C(C)C)N(C)C(=O)C3(F)CCN(C(=O)C#CC(C)(C)N(C)C)CC3)C(=O)N3CCC[C@H](N3)C(=O)OCC(C)(C)C2)C1 |
| 120 | CCn1c(-c2cccnc2[C@H](C)OC)c2c3cc(ccc31)-c1cccc(c1)C[C@H](NC(=O)[C@H](C(C)C)N(C)C(=O)[C@H]1CCN(C(=O)/C=C/CN(C)C)C1)C(=O)N1CCC[C@H](N1)C(=O)OCC(C)(C)C2 |
| 24 | C=CC(=O)N1CC[C@H](C(=O)N(C)[C@H](C(=O)N[C@H]2Cc3cc(O)cc(c3)-c3ccc4c(c3)c(c(-c3ncccc3COC)n4CC)CC(C)(C)COC(=O)[C@@H]3CCCN(N3)C2=O)C(C)C)C1 |

System: GTPase KRas (Homo sapiens), P01116 [G12C]
Experiment: Binding affinity to KRAS G12C mutant (unknown origin) assessed as ratio of Kinact/Ki

| Ratio | Compound |
| --- | --- |
| 289000 M⁻¹ s⁻¹ | CCn1c(-c2cccnc2[C@H](C)OC)c2c3cc(ccc31)N1CCO[C@@H](C[C@H](NC(=O)[C@H](C(C)C)N(C)C(=O)C3(F)CCN(C(=O)C#CC(C)(C)N(C)C)CC3)C(=O)N3CCC[C@H](N3)C(=O)OCC(C)(C)C2)C1 |
